This test deals with Histone deacetylase 3 (Homo sapiens, UniProt O15379). As to the kind of experiment: Inhibition of HDAC3 (unknown origin).

Chains of the proteins cited; added tags and fusions are not shown. Lines headed by an entry give the natural chain unless they say otherwise; changes in a name come on top.
UniProt O15379: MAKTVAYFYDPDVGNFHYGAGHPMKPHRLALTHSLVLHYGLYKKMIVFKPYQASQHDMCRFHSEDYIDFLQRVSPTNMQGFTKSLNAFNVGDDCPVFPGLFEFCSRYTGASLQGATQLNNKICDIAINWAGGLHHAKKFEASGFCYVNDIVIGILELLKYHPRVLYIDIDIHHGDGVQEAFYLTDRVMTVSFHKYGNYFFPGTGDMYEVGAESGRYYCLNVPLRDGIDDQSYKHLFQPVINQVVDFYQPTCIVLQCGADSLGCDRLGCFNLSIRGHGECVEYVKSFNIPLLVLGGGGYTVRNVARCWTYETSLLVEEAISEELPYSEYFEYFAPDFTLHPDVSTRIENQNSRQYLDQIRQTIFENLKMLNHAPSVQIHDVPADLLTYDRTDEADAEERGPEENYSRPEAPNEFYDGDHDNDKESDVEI

Results on one compound are retold here after ChEMBL document CHEMBL5096206, “From natural products to HDAC inhibitors: An overview of drug discovery and design strategy” (Bioorg Med Chem, 2021).

Consider `CCCC(CCC)C(=O)O` [VALPROIC ACID], for which half-maximal inhibition (IC50) required 700 µM.
